This passage reports IC50 results from patent publication US20150004189A1.

The assay has as its target T1, HLA-DQ molecule DQB1*0501 (human).
T1 chain 1: not shown
T1 chain 2: not shown
Briefly: competition: inhibition of radiolabeled peptide binding to purified HLA.

As a reminder, the IC50 is the point on the concentration scale where inhibition reaches its midpoint. Higher therefore signals weaker potency.

Turning to QGVADAYITLVTLPK (modifications not checked) [Alt a 1 peptide, position 141, Peptide ID 3324.0011], the IC50 came to 8.01 µM.
In the case of IASLFAAAGLAAAAP (modifications not checked) [Alt a 1 peptide, position 6, Peptide ID 3324.0015], the IC50 was found to be 24.1 µM.
